PubChem BioAssay (Tox21)
The entries are a selection whose mix differs from that of the whole data set. Results filed as inconclusive are left out. Activity calls are given as the source filed them. The call rests on the fitted dose curve; in most records, active means well fitted inhibition curve with a large enough effect in the repeat runs; inconclusive means weak or mixed curves, or effect the other way; inactive means no such curve, though single readings can be large or run the other way.
On the % scale 0 is the no-effect control and ±100 the full control effect.

Assay: qHTS assay to identify small molecule antagonists of the retinoic acid receptor (RAR) signaling pathway (AID 1159552; further: nearly all actives have a fitted effect of over 50% in size)
Conditions: C3RL4 RARE luciferase reporter, retinol-stimulated, 6 h; at 19 µM (top of the series)
Excerpt: National Center for Advancing Translational Sciences [NCATS]
NIH Chemical Genomics Center [NCGC]
U.S. Environmental Protection Agency [EPA]
National Institutes of Environmental Health Sciences [NIEHS]
National Toxicology Program [NTP]
U.S. Food and Drug Administration [FDA]
All-trans Retinoic acid (atRA) is the potent natural metabolite of retinol and plays an important role in normal embryonic development and maintenance of cellular phenotype in adult animals. atRA is the activating ligand for the retinoic acid receptors (RARs) which form heterodimers with retinoid X receptors (RXRs) on the retinoic acid response element (RARE). Through activation of the RAR/RXRs nuclear receptors, atRA regulates the transcription of a large number of protein-coding genes and regulatory RNAs. Intracellular levels of atRA are controlled by the retinol signaling pathway (RSP) that regulates the biosynthesis and catabolism of atRA to maintain physiological levels. Chemicals that interfere with the RSP can cause abnormal intracellular levels of atRA and therefore are potential developmental toxicants. To assess compounds for the potential adverse effect on embryonic development through interfering with retinol signaling, a cell-based RARE luciferase reporter gene assay was used. C3RL4 cell line (OARSA/CFSAN/FDA, Laurel, MD) was used to screen Tox21 10K compound library for identifying inhibitors of the RSP.
Tox21 Assay Protocol Summary:
C3RL4 cells were seeded at 1,000/well in 4 uL of assay medium into white solid 1,536-well tissue culture plates (Greiner Bio-One North America Inc. Monroe, NC) using a Multidrop Combi (Thermo Scientific, Waltham, MA) dispenser. After incubation at 37 C and 5% CO2 for an overnight, 23 nL of compounds dissolved in DMSO, positive control or DMSO only were transferred by a Pintool station (Kalypsys, San Diego, CA). One ul of 1 uM (final concentration) of Retinol was added right after the compound addition by using a Flying Reagent Dispenser (FRD) (Aurora Discovery, San Diego, CA). After 6 hr incubation at 37 C and 5% CO2, 5 uL of Amplite Luciferase reagent (AAT Bioquest Inc. Sunnyvale, CA) was added to each assay plate using an FRD. Luminescence was quantified on a ViewLux plate reader (PerkinElmer, Waltham, MA) after 30 min incubation at room temperature.
In the case of `CCC(C)(OOC(C)(C)C)OOC(C)(C)C`, the activity, negative = inhibition is reported as inactive: 6.6%.

Same assay, conditions: C3RL4 RARE luciferase reporter, retinol-stimulated, 6 h; at 42.5 µM (top of the series)
In the case of `CN(C(=O)Cc1ccc(Cl)c(Cl)c1)[C@H]1CC[C@@]2(CCCO2)C[C@@H]1N1CCCC1`, the activity, negative = inhibition is reported as inactive: -3.16%.
For `NC(=O)Nc1ccc([As](=O)(O)O)cc1`, the activity, negative = inhibition was inactive: 0.99%.
For `CN(C(=O)Cc1ccccc1)[C@H]1CC[C@@]2(CCCO2)C[C@@H]1N1CCCC1`, the activity, negative = inhibition was inactive: 9.58%.

Same assay, conditions: C3RL4 RARE luciferase reporter, retinol-stimulated, 6 h; at 92.4 µM (top of the series)
With `CCOC(=O)Cl` the activity, negative = inhibition was inactive: -3.74%.
In the case of `CCNC(C)Cc1ccc2c(c1)OCO2` (centres undefined), the activity, negative = inhibition is reported as inactive: 10.8%.
For `NC(=O)Nc1ccc([As](=O)(O)O)cc1`, the activity, negative = inhibition was inactive: -0.681%.
With `ClP(Cl)c1ccccc1` the activity, negative = inhibition was inactive: -2.25%.
With `CCCCC(CC)CO[P+](=O)OCC(CC)CCCC` (centres undefined) the activity, negative = inhibition was inactive: 3.8%.
For `O=[p+]1oc2ccccc2c2ccccc21` (centres undefined), the activity, negative = inhibition was inactive: 14%.
With `O=C(Cl)Oc1ccccc1` the activity, negative = inhibition was inactive: -7.34%.
With `CC(C)CCCCCCCOP(OCCCCCCCC(C)C)Oc1ccccc1` the activity, negative = inhibition was inactive: 1.11%.
For `CN(C(=O)Cc1cccc2occc12)[C@H]1CC[C@@]2(CCCO2)C[C@@H]1N1CCCC1`, the activity, negative = inhibition was inactive: -12.7%.
For `CN(N=O)C(=N)N[N+](=O)[O-]`, the activity, negative = inhibition was inactive: 12.1%.
In the case of `CCCCOP(OCCCC)OCCCC`, the activity, negative = inhibition is reported as inactive: -5.93%.
In the case of `COP(=S)(Cl)OC`, the activity, negative = inhibition is reported as inactive: -1.36%.
In the case of `CCOP(=S)(CC)Sc1ccccc1` (centres undefined), the activity, negative = inhibition is reported as inactive: -17%.
With `O=[P+](Oc1ccccc1)Oc1ccccc1` the activity, negative = inhibition was inactive: 17.1%.
In the case of `COC(=O)Cl`, the activity, negative = inhibition is reported as inactive: 21.2%.
